Source: patent publication US20220073963A1, “COMPOSITIONS AND METHODS FOR DETECTING AND TREATING TYPE 1 DIABETES AND OTHER AUTOIMMUNE DISEASES” (THE JOHNS HOPKINS UNIVERSITY, priority 2018, published 2022)

Legend:
HLA-DQ8 monomers = assay: Gentle SDS-PAGE assay of peptide binding to DQ8; set-up: species or system human; settings: 100 μM peptide, 0.5 μM HLA-DQ8 monomers, 37° C., 72 h, pH 5.5
Experimental: Analysis of x-Id peptide binding to DQ8 using gentle SDS-PAGE assay. Gentle SDS-PAGE was used to assess formation of stable complexes between peptides and HLA-DQ8 molecules as previously described (Kim et al., 2013; Sadegh-Nasseri and Germain, 1991). Briefly, 0.5 μM of HLA-DQ8 monomers (provided by NIH tetramer core facility) were treated with thrombin to cleave and remove CLIP peptide. Empty monomers were incubated in the absence or presence of 100 μM of indicated peptides (x-Id, TP-Id, mimotope (R22E), native insulin B:9-23, and h-Id) at 37° C. for 72 h in citrate phosphate buffer, pH 5.5 with 1 mM PMSF and 0.025% NaN3. Reactions were neutralized, mixed with equal volumes of SDS-PAGE sample buffer containing 0.1% SDS (final concentration) and placed for 15 min at room temperature and run on 10% PAGE gels and silver-stained using a standard protocol.

[1] = Wang et al., 2018; cited from earlier work

mimotope: insulin B:9-23 with arginine at P9 substituted by glutamic acid (R22E)
formation of SDS-stable complexes with soluble DQ8 (HLA-DQ8 monomers): forming SDS-stable complexes | potency relative to native insulin B:9-23 [1]: 100 fold
